Data on 3 molecules can be found in patent US20160116448A1, “pH-MODULATED QUENCHERS OF FLUORESCENCE” (published 2016).

What is called pKa is the negative logarithm of the acid dissociation constant. Low values mean a stronger acid or weaker base, high ones a weaker acid or stronger base.

Data set [1] can be described thus: pKa of compounds of formula (I). Particulars: compound of formula (I).
A short description of data set [2]: Light absorption of the anions derived from the compounds (maximal absorption wavelength, molar extinction coefficient). Particulars: anion derived from the compound.
The nature of data set [3]: Stability to reduction by dithiothreitol (DTT), visible spectrum.
Where [4] appears, read: after treatment with dithiothreitol, 1 cm cuvette.
Setting [5] is: methanol / 1×PCR buffer, before dithiothreitol, 1 cm cuvette.
The mark [6] stands for this setting: with dithiothreitol, after 95 °C water bath for 5 minutes, cooled to room temperature.

`CC(C)OC(=O)C(c1ccc([N+](=O)[O-])cc1[N+](=O)[O-])c1ncc([N+](=O)[O-])cc1[N+](=O)[O-]` (stereo not drawn) had a pKa in data set [1] of 4.3. In addition, in data set [2], the “ε (molar extinction coefficient)” value is given as 29,950 cm^−1 M^−1 and the λ max was determined as 592 nM.
The corresponding values for `CCN(CC)C(=O)C(c1ccc([N+](=O)[O-])cc1[N+](=O)[O-])c1ncc([N+](=O)[O-])cc1[N+](=O)[O-]` (stereo not drawn) are 5.5, 22,000 cm^−1 M^−1 and 616 nM.
In turn, `CCCCCCOC(=O)C(c1ccc([N+](=O)[O-])cc1[N+](=O)[O-])c1ccc([N+](=O)[O-])cc1[N+](=O)[O-]` registered a pKa in data set [1] of 7.8. In addition, the Absorbance in data set [3] (setting [4]) was determined as 3.193; in data set [3] (setting [5]), 3.205; in data set [3] (setting [6]) it was 3.044. Moreover, the “observed λ max” value in data set [3] (setting [4]) and in data set [3] (setting [5]) was 655 nM each time. Also, the “visible spectrum after heating with DTT” value in data set [3] (with dithiothreitol, after 95 °C water bath for 5 minutes) is on record as “essentially unchanged”. In addition, the λ max is 655 nM in data set [3] (setting [6]) and 652 nM in data set [2].
